Experimental data reported in patent US20210311024A1, “NON-CLINICAL TEST METHOD CHARACTERIZED BY QUANTITATIVE EVALUATION OF EXPERIMENTAL ANIMAL SPECIMEN” (Konica Minolta, Inc., priority 2016, published 2021).

Legend:
[1] = system: first to third generation PDX mice transplanted with the breast cancer tissue of a patient determined as 3+ in the DAB staining; assay: Trastuzumab drug efficacy (tumor volume) in passaged breast cancer PDX mice, Example 3; format: in vivo; conditions: 15 mg/kg i.v. once a week, five times, one month after first administration
HER2 = HER2 expression level (PID score, phosphor integrated dots immunostaining) in tumor sections of trastuzumab-treated PDX mice, Example 2; format: in vivo, human; conditions: HER2 number of particles per cell
[2] = system: PDX mice each transplanted with the breast cancer tissue of either of two patients determined as 3+ in the DAB staining (Samples X and Y); assay: Trastuzumab drug efficacy (tumor volume) in breast cancer PDX mice, Example 2; format: in vivo; conditions: Sample X; 15 mg/kg i.v. once a day, three times; after 2 weeks

Substance: trastuzumab
- Tumor size after drug administration (size at the start of administration is taken as 100%) ([1]; P1 (First generation mice)): 50%
- Tumor size after drug administration (size at the start of administration is taken as 100%) ([1]; P2-1 (Second generation mice 1)): 50%
- Tumor size after drug administration (size at the start of administration is taken as 100%) ([1]; P3-1 (Third generation mice produced from P2-1)): 60%
- PID score (HER2; Sample X, after 1 week (200 before administration)): 180
- PID score (HER2; Sample X, after 2 weeks (200 before administration)): 140
- PID score (HER2; Sample X, after 3 days (200 before administration)): 200
- PID score (HER2; Sample Y, after 3 days (200 before administration)): 160
- Tumor size (size at the start of administration is taken as 100%) [2]: 50%
